In patent US20190031718A1:

Legend:
CBS-myoglobin [1] = assay: BLI, sensor exposed to the highest analyte concentration, then dipped into buffer with EDTA
CBS-myoglobin [2] = assay: BLI, biotinylated CPP-adapter on streptavidin sensors, CBS-myoglobin as analyte (1 µM to 63 nM), one-state association-then-dissociation fit
CBS-myoglobin [3] = assay: BLI, dissociation in buffer with EDTA

koff (EDTA) (CBS-myoglobin [1]): 0.11 s⁻¹ | Kd (CBS-myoglobin [2]): 20.6 nM | koff (CBS-myoglobin [2]): 0.00017 s⁻¹ | kon (CBS-myoglobin [2]): 8300 M⁻¹ s⁻¹ | koff (EDTA) (CBS-myoglobin [3]): 0.1 s⁻¹
Substance: SAP-CaM
